Source: ChEMBL document CHEMBL4627330, “Structural investigation on thiazolo[5,4-d]pyrimidines to obtain dual-acting blockers of CD73 and adenosine A2A receptor as potential antitumor agents” (Bioorg Med Chem Lett, 2020)

Chains of the proteins cited; added tags and fusions are not shown.
UniProt P0DMS8, whole entry: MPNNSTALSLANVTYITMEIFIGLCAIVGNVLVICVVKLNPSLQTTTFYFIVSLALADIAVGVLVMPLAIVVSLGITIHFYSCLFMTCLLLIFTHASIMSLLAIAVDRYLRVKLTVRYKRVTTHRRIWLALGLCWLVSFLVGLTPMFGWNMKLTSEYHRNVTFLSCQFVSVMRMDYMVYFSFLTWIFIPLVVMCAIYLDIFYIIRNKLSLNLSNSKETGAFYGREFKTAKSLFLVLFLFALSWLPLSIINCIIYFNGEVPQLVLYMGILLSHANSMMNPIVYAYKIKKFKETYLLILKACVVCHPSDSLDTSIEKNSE

Target: Adenosine receptor A3 (Homo sapiens, UniProt P0DMS8)
Test: Displacement of [125I]AB-MECA from human A3R expressed in CHO cells at 10 uM relative to control

inhibition: 27%
Compound: Nc1nc(NCCN2CCN(c3ccc(S(N)(=O)=O)cc3)CC2)nc2sc(-c3ccco3)nc12
